The record followed here is patent US4602945A, “Acaricidal ester of tricyclohexyl-tin hydroxide” (Rhone-Poulenc Agrochimie, priority 1983, dated 1986).

Series [1] relates to Polyphagotarsonemus. The series can be described thus: Acaricidal test carried out in the same manner on another species of acarids. The class given is in vivo. On the procedure: Bean plants at the stage of 1 trifoliate leaf are contaminated with a mixed population of Tetranychus urticae.
After 48 hours, the contaminated plants are treated with aqueous dilutions of the compositions to be tested, using a spray gun of the FISCHER type, until dripping wet. These compositions consist of:
Three bean plants are used per product and per dose. The treated plants are kept in a greenhouse for 14 days (temperature 20°-25° C., relative humidity 40-60%, illumination 5 to 10,000 lux). The plants are watered at the foot, to avoid any washing off of the products.
After 2, 7 and 14 days after the treatment, the population of acarids present on each plant is estimated in relation to the mean of 3 controls treated only with water. A percentage activity is deduced therefrom: [formula]

Series [2] can be described thus: Solubility in organic solvents. The class given is physicochemical. The protocol:
A reactor is charged, with cyclohexanone (546 g) and 94% pure tricyclohexyl-tin hydroxide (316 g) at 50° C., with stirring. […] Benzoic acid (95 g) is then added and the temperature is kept at 50° C. After stirring for 10 minutes, a yellow solution is obtained which, after filtration and drying, gives a clear solution. An emulsifiable concentrate of specific gravity 1.057 at 20° C. is obtained by adding emulsifiers as in the preceding example.

Regarding tricyclohexyl-tin benzoate, the “lethal dose at 90%” value in series [1] (Polyphagotarsonemus) came out at 10 ppm. Further, in series [1] (versus cyhexatin used as a wettable powder), the “lethal dose at 90% relative to the reference cyhexatin” value is on record as “eight times less”. Besides, the “solubility in most of the organic solvents” value in series [2] was “excellent solubility”.
